Read-outs that look alike come from different tables or passages of the source.
Experiments:
[1] = test system: receptors in rat forebrain (mainly α4β2); settings: Table 3; ratio of the corresponding Ki values
α4β2 nAChR subtype = α4β2 nAChR subtype (Rattus norvegicus, UniProt P09483+P12390)
α3β2 nAChR subtype = α3β2 nAChR subtype (Rattus norvegicus, UniProt P04757+P12390); settings: read-out: Ki α3β2
α4β4 nAChR subtype = α4β4 nAChR subtype (Rattus norvegicus, UniProt P09483+P12392); settings: read-out: Ki α4β4
α2β2 nAChR subtype = α2β2 nAChR subtype (Rattus norvegicus, UniProt P12389+P12390); settings: read-out: Ki α2β2
α2β4 nAChR subtype = α2β4 nAChR subtype (Rattus norvegicus, UniProt P12389+P12392); settings: read-out: Ki α2β4
α3β4 nAChR subtype = α3β4 nAChR subtype (Rattus norvegicus, UniProt P04757+P12392); settings: read-out: Ki α3β4; Table 1; mean of 3 (1, 2: 3 to 6) independent measurements
[2] = molecular target: receptors in rat forebrain (mainly α4β2) (Rattus norvegicus, UniProt P09483+P12390); settings: read-out: Ki Rat forebrain; Table 1; mean of 3 (1, 2: 3 to 6) independent measurements
[3] = Table 1, mean of 3 (1, 2: 3 to 6) independent measurements

Sequences of proteins named here, by UniProt entry; tags and fusion partners are left off. Residues count along the entry.
UniProt P09483, 31-630 limits assumed: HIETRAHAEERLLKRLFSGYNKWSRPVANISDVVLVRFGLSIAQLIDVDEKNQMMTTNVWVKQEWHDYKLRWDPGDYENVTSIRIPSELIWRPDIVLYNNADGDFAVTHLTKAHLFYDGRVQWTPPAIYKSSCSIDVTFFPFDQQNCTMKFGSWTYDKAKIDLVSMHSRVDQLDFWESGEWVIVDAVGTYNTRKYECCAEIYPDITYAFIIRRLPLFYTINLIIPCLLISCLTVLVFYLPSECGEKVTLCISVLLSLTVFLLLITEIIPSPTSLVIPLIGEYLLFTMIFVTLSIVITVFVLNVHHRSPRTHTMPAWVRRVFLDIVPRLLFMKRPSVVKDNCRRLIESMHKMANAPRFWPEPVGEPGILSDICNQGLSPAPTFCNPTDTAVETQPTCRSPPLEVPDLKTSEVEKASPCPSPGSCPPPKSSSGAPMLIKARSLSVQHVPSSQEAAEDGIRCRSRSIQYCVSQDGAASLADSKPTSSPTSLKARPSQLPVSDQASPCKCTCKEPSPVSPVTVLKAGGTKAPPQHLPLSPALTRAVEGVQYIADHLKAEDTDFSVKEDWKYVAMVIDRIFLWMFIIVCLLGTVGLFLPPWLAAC
UniProt P12390, 25-500 limits assumed: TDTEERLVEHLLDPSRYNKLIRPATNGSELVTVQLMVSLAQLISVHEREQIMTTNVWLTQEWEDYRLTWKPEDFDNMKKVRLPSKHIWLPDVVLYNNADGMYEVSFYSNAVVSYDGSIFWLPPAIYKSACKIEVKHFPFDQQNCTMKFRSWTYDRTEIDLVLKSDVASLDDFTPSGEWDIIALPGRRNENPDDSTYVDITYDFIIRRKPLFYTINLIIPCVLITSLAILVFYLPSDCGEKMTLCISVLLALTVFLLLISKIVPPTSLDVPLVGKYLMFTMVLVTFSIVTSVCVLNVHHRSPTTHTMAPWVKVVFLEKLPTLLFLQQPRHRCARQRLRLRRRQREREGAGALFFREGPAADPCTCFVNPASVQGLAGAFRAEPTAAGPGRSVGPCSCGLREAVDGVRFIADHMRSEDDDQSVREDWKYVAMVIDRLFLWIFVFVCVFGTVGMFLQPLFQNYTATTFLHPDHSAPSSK
UniProt P04757, 26-499 limits assumed: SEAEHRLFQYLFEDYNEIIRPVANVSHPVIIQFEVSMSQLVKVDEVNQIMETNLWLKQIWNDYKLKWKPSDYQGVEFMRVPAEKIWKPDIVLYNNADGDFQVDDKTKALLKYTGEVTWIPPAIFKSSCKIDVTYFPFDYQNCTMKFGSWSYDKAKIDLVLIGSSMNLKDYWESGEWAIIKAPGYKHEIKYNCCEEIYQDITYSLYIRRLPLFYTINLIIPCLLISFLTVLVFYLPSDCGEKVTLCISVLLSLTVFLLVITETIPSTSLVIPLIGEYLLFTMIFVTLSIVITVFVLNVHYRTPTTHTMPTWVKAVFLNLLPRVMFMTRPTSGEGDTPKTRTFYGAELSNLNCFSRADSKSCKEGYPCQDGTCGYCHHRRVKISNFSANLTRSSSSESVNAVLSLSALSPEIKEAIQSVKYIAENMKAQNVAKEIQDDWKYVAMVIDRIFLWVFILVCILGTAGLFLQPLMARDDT
UniProt P12392, 21-495 limits assumed: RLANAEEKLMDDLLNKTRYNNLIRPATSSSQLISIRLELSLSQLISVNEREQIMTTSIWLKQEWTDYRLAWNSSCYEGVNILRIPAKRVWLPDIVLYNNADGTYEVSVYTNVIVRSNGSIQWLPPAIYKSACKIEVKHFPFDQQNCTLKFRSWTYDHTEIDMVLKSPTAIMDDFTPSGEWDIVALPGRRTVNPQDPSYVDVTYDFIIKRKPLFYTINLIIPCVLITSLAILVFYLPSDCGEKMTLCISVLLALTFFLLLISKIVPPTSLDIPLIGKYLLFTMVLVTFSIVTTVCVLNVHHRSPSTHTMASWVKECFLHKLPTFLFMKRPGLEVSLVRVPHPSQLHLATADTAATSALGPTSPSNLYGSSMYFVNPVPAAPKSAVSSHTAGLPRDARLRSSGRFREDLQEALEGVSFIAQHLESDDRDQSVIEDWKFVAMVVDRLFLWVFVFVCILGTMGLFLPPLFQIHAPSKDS
UniProt P12389, 28-511 limits assumed: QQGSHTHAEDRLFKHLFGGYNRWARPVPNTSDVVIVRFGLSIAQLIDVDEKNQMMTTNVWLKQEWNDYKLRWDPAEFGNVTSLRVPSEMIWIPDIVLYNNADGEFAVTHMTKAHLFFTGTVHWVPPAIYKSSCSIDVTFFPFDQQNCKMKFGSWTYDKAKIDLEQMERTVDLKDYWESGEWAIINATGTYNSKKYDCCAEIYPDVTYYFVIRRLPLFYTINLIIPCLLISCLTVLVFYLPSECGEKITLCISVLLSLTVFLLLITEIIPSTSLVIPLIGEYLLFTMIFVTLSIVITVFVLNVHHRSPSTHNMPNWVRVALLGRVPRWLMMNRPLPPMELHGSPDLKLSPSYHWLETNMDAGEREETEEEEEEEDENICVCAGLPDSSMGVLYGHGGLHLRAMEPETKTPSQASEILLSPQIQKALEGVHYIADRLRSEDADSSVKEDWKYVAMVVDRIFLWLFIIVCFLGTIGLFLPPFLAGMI

OCCCCC#Cc1cncc(C2CC3CCC2N3)c1 (stereo not drawn) [Ligand 31, 2-exo-(5-(6-Hydroxy-1-hexynyl)-3-pyridyl)-7-azabicyclo[2.2.1]heptane]
Affinity ratio (α3β4/Forbrain) [1]: 1,237 | affinity (Ki) ratios for an α subunit paired with the β2 versus the β4 subunit (α4β2 nAChR subtype; text b208): up to 1,800 | folds less active than epibatidine (2) at each β2 containing subtypes (α4β2 nAChR subtype; text b208): 3-14 folds | more selective for α4β2 over α3β4 than the corresponding parent compounds 7, 8, and 2 (α4β2 nAChR subtype; text b210): 2 orders of magnitude

OC1CC2CC(c3ccc(Cl)nc3)C1N2 (single isomer, unassigned)
Ki (α3β2 nAChR subtype): 8.9 nM

OC1CC2NC1CC2c1ccc(Cl)nc1 (stereo not drawn) [Ligand 7, 2-exo-(2-Chloro-5-pyridyl)-5-endo-hydroxyl-7-azabicyclo[2.2.1]heptane]
Ki (α4β4 nAChR subtype): 72.8 nM | Ki (α3β2 nAChR subtype): 19.3 nM | Ki (α2β2 nAChR subtype): 16.9 nM | Ki (α2β4 nAChR subtype): 67.5 nM

CN1CCC[C@H]1COc1cncc(C#Cc2ccccc2)c1
Ki (α3β4 nAChR subtype): 2460 nM | Ki (α4β4 nAChR subtype; [3]): 369 nM | Ki (α3β2 nAChR subtype; [3]): 4.96 nM | Ki (α2β2 nAChR subtype; [3]): 4.52 nM | Ki [2]: 6.4 nM | Ki (α4β2 nAChR subtype; read-out: Ki α4β2, Table 1, mean of 3 (1, 2: 3 to 6) independent measurements): 0.936 nM | Ki (α2β4 nAChR subtype; [3]): 437 nM
